What was measured:
[1] = test system: N[C@@H](Cc1ccc(O)cc1)C(=O)O; test: purified protein, by the assay type; settings: other: substrate at its pH optimum (pH 8.5 TAL, pH 9.4 PAL), 35° C., mean of six independent measurements
N[C@@H](Cc1ccccc1)C(=O)O = test: purified protein, by the assay type; settings: other: substrate at its pH optimum (pH 8.5 TAL, pH 9.4 PAL), 35° C., mean of six independent measurements

## tyrosine ammonia lyase (TAL) from Rhodobacter capsulatus (Rhodobacter capsulatus SB 1003)
[1]
  Km: 15.6 µM
  kcat: 27.7 s⁻¹
  kcat/Km: 1.77e+06 M⁻¹ s⁻¹
N[C@@H](Cc1ccccc1)C(=O)O
  Km: 1277 µM
  kcat: 15.1 s⁻¹
  kcat/Km: 11800 M⁻¹ s⁻¹

Reference: patent US7241611B2, “Methods for synthesis of holo-photoactive yellow protein” (Universiteit Gent, priority 2002, dated 2007)
